Holding throughout (assay type): cell-based
The target of assay [1] is Toll-like receptor 2 (Homo sapiens) (UniProt O60603). The assay is described as follows: Agonist activity at TLR2 in HEK-Blue hTLR2 cells expressing NF-kappaB/AP-1 inducible SEAP assessed as increase in SEAP activity at 0.05 to 100 uM incubated for 24 hrs by QUANTI-Blue assay. The following applies: dose 0.05-100 µM.
In assay [2] the target is T1, Toll-like receptor 7 (Mus musculus) (UniProt P58681).
T1 sequence (whole entry): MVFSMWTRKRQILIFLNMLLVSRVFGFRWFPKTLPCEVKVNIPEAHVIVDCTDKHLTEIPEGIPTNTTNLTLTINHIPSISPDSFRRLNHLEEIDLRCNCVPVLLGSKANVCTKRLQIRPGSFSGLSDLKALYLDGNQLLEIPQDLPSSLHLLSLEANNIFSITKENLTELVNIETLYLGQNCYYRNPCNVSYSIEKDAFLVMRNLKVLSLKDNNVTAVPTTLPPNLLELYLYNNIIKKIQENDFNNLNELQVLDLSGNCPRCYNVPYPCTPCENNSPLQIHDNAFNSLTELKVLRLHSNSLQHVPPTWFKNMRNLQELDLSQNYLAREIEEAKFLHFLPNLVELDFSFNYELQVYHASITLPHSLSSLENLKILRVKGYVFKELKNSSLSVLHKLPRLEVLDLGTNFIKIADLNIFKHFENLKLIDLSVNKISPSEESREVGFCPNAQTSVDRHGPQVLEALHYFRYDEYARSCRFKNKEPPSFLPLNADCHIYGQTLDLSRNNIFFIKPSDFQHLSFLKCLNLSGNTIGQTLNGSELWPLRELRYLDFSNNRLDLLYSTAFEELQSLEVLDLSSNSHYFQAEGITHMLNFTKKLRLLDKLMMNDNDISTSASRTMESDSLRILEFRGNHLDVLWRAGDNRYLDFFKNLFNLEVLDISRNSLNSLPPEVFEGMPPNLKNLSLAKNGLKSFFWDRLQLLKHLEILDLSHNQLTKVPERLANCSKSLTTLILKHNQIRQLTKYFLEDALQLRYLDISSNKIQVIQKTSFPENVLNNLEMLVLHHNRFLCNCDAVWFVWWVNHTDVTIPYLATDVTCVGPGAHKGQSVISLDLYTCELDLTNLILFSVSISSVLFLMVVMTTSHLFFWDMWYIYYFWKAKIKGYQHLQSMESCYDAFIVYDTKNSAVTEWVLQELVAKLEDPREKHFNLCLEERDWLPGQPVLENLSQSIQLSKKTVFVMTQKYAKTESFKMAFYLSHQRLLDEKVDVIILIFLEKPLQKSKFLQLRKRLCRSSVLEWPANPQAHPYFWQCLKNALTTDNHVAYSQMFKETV
The assay is described as follows: Agonist activity at TLR7 in mouse BMDC cells assessed as activation of TLR7 downstream signaling pathway by measuring increase in p38 phosphorylation at 1 uM measured after 0 to 120 mins by Western blot analysis. As to conditions: filed as agonist, time 0-120 min.

Amino acid sequences for entries named in this document (tags omitted).
UniProt O60603, whole entry: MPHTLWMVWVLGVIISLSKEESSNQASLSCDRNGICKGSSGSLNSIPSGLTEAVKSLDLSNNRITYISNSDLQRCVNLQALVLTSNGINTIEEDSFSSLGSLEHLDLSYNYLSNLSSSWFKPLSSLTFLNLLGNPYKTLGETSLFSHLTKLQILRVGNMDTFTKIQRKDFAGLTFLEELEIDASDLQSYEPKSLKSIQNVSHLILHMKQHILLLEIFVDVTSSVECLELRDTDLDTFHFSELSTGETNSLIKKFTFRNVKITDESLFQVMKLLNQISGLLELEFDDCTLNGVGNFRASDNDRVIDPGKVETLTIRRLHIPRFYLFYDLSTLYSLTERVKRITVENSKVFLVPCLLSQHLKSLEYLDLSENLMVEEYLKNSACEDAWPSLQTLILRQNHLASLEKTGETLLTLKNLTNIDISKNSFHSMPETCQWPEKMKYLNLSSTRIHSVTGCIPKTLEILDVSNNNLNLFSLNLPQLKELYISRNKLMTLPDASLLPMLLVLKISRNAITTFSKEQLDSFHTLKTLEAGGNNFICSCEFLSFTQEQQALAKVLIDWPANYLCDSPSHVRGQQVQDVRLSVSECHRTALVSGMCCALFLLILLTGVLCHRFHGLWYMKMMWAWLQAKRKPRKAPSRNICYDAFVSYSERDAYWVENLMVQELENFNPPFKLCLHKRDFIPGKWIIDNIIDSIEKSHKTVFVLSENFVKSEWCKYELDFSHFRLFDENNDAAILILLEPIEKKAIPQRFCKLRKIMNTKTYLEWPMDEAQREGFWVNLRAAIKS
UniProt O00206, whole entry: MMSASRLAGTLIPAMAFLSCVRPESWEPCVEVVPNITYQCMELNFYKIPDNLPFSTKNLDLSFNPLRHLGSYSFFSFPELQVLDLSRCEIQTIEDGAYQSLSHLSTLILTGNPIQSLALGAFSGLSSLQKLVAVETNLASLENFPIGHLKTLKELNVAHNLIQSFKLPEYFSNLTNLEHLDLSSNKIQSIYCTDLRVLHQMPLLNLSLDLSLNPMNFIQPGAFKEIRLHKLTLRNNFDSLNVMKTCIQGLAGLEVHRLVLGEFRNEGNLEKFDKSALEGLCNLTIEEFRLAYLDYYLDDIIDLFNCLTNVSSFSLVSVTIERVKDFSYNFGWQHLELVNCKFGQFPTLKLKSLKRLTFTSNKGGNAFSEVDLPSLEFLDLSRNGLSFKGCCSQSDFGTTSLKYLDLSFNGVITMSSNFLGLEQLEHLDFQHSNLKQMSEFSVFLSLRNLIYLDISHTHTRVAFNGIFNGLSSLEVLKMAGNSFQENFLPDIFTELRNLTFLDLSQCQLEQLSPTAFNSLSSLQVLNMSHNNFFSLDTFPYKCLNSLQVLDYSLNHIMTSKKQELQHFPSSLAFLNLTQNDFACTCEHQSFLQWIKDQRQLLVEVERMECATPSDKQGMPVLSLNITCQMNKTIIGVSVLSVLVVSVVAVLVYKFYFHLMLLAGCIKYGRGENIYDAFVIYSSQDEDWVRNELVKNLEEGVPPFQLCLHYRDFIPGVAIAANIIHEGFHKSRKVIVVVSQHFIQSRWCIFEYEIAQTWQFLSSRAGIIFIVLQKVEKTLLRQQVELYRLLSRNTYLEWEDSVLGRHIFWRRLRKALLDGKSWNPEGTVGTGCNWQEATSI

Assay [3] addresses T1, Toll-like receptor 7 (Mus musculus). The assay is described as follows: Agonist activity at TLR7 in mouse BMDC cells assessed as activation of TLR7 downstream signaling pathway by measuring increase in JNK phosphorylation at 1 uM measured after 0 to 120 mins by Western blot analysis. As to conditions: filed as agonist, time 0-120 min.
Assay [4] shares this target. The assay is described as follows: Agonist activity at TLR7 in mouse BMDC cells assessed as increase in TLR7-MyD88 interaction by measuring coimmunoprecipitation at 1 uM by immunoblot analysis. The following applies: filed as agonist, time 0-120 min.
Assay [5] shares this target. The assay is described as follows: Agonist activity at TLR7 in mouse BMDC cells assessed as activation of TLR7 downstream signaling pathway by measuring increase in IRF7 phosphorylation at 1 uM measured after 0 to 24 hrs by Western blot analysis. The following applies: filed as agonist, time 0-24 hrs.
Assay [6] concerns the target Toll-like receptor 4 (Homo sapiens) (UniProt O00206). The assay is described as follows: Agonist activity at TLR4 in HEK-Blue hTLR4 cells expressing NF-kappaB/AP-1 inducible SEAP assessed as increase in SEAP activity at 0.05 to 100 uM incubated for 24 hrs by QUANTI-Blue assay. The following applies: dose 0.05-100 µM.
Assay [7] concerns the target T2, Toll-like receptor 3 (Homo sapiens) (UniProt O15455).
T2 sequence (whole entry): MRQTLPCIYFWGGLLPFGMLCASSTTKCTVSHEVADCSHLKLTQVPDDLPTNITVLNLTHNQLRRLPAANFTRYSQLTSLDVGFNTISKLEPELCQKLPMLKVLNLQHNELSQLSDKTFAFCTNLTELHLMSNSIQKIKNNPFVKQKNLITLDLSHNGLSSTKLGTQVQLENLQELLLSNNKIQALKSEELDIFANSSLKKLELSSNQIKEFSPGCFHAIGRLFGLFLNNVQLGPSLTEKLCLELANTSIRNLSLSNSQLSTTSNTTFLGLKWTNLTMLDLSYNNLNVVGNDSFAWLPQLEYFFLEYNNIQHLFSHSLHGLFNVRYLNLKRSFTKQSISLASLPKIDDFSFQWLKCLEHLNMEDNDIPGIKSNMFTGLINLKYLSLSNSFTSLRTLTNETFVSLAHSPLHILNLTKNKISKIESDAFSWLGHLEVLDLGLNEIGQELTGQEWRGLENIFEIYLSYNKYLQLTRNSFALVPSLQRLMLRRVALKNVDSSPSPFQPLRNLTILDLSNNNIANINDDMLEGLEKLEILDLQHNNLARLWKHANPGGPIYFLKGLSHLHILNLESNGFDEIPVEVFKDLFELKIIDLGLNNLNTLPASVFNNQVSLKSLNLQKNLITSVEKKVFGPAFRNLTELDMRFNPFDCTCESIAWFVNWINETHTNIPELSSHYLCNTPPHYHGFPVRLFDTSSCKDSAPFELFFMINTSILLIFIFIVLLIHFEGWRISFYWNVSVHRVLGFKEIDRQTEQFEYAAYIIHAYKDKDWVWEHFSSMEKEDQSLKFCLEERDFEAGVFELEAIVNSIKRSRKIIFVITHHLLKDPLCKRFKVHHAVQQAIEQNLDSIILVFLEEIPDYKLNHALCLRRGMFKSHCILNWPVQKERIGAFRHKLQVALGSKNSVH
The assay is described as follows: Agonist activity at TLR3 in HEK-Blue hTLR3 cells expressing NF-kappaB/AP-1 inducible SEAP assessed as increase in SEAP activity at 0.05 to 100 uM incubated for 24 hrs by QUANTI-Blue assay. As to conditions: dose 0.05-100 µM.

The target of assay [8] is T1, Toll-like receptor 7 (Mus musculus). The assay is described as follows: Agonist activity at TLR7 in mouse BMDC cells assessed as activation of TLR7 downstream signaling pathway by measuring increase in ERK1/2 phosphorylation at 1 uM measured after 0 to 120 mins by Western blot analysis. As to conditions: filed as agonist, time 0-120 min.
The target is the same in assay [9]. The assay is described as follows: Agonist activity at TLR7 in mouse BMDC cells assessed as activation of TLR7 downstream signaling pathway by measuring increase in p65 phosphorylation at 1 uM measured after 0 to 120 mins by Western blot analysis. As to conditions: filed as agonist, time 0-120 min.
Assay [10] has the same target. The assay is described as follows: Agonist activity at TLR7 in mouse BMDC cells assessed as activation of TLR7 downstream signaling pathway by measuring increase in IKK alpha/beta phosphorylation at 1 uM measured after 0 to 120 mins by Western blot analysis. As to conditions: filed as agonist, time 0-120 min.

SMILES strings stand for the structures. Calls of active or inactive are those of the source. No cut-off for these calls is given here.

In the case of `CCCCc1nc2c(N)nc3ccccc3c2n1CC1CCOC1` (stereo not given), the result in assay [1], in [6] and in [7] was inactive. For the same compound, the outcome in assay [2], in assay [3], in [5], in assay [8], in assay [9] and in assay [10] was Active. The Activity result in assay [4] is “Dose-Dependent Effect”.

The values are drawn from ChEMBL document CHEMBL5518200, “Heterocyclic-Modified Imidazoquinoline Derivatives: Selective TLR7 Agonist Regulates Tumor Microenvironment against Melanoma” (J Med Chem, 2024).
